Assay results reported in patent publication US10208021B2.

Sequences of proteins named here, by UniProt entry; tags and fusion partners are left off. Residues count along the entry.
UniProt P03951, 388-625 limits assumed: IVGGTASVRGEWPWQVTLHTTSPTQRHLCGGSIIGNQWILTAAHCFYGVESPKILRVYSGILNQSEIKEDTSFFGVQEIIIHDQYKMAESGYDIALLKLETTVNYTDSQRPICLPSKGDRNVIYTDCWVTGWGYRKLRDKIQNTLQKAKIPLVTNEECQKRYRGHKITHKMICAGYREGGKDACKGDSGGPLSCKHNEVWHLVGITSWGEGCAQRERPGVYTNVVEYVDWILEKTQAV
UniProt P03951, 19-387 partner limits assumed: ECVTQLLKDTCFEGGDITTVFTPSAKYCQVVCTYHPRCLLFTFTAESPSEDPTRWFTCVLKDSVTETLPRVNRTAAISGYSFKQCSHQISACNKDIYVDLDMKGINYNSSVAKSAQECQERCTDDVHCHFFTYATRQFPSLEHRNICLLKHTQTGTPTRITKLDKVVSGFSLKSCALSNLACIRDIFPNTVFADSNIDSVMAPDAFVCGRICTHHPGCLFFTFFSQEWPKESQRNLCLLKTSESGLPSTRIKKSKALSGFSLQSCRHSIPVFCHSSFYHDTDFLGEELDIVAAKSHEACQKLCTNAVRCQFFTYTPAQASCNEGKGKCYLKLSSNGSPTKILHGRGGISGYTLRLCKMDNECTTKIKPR

Target: purified human Factor XIa (Homo sapiens (Human), UniProt P03951)
Test: Factor XIa chromogenic substrate (S-2366) inhibition assay
Type: biochemical
[1] = read-out: Factor XIa Ki, substrate S-2366, activity ranges, Table A
[2] = read-out: Factor XIa Ki, substrate S-2366, Table 1

Structure (SMILES) | Ki [1] [nM] | Ki [2] [nM]
COC(=O)Nc1ccc(NC(=O)C2c3cccc(N4CCN(C)CC4)c3CCN2C(=O)/C=C/c2cc(Cl)ccc2-n2cnnn2)cc1 (centres unmarked) | 5 to 10 | –
O=C(O)c1ccc(NC(=O)[C@H]2c3cccc(N4CCNCC4)c3CCN2C(=O)/C=C/c2cc(Cl)c(F)cc2-n2cnnn2)cc1 | – | 2290
O=C(O)c1ccc(NC(=O)C2c3cccc(N4C[C@@H]5C[C@H]4CN5)c3CCN2C(=O)/C=C/c2c(-n3cnnn3)ccc(Cl)c2F)cc1 (some centres unmarked) | < 5 | –
CCOC(=O)c1ccc(NC(=O)[C@@H]2c3cccc(N4CCC(N5CCCC5=O)CC4)c3CCN2C(=O)/C=C/c2c(-n3cnnn3)ccc(Cl)c2F)cc1 | < 5 | –
COC(=O)Nc1ccc(NC(=O)C2c3cccc(N4CCNCC4)c3CCN2C(=O)/C=C/c2c(-n3cnnn3)ccc(Cl)c2F)cc1 (single isomer, unassigned) | 5 to 10 | –
O=C(O)c1ccc(NC(=O)[C@@H]2c3cccc(N4CCNCC4)c3CCN2C(=O)/C=C/c2cc(Cl)c(F)cc2-n2cnnn2)cc1 | 5 to 10 | –
O=C(Nc1ccc2cn[nH]c2c1)[C@@H]1c2cccc(N3CCNCC3)c2CCN1C(=O)/C=C/c1cc(Cl)c(F)cc1-n1cnnn1 | < 5 | –
O=C(Nc1ccc2cn[nH]c2c1)[C@H]1c2cccc(N3CCNCC3)c2CCN1C(=O)/C=C/c1cc(Cl)c(F)cc1-n1cnnn1 | – | 2440

Read-outs that look alike come from different tables or passages of the source.
